Measured values as given in US8507488B2, “Fused nitrogen containing heterocycles and compositions thereof as kinase inhibitors” (IRM LLC, priority 2008, dated 2013).

The chains behind the UniProt entries cited, without tags or fusion partners. Residues count along the entry.
UniProt Q16620, 538-822 limits assumed: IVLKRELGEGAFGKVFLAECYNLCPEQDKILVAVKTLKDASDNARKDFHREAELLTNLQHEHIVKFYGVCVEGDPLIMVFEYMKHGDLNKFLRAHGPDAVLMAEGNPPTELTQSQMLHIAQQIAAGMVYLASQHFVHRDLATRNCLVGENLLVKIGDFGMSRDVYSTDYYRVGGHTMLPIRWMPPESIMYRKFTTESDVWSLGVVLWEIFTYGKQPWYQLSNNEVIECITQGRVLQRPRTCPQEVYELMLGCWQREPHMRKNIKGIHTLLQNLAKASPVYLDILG

Target: T1, Tel-TrkB (Homo sapiens, UniProt Q16620)
T1 construct: dimerization domain of Tel (ETV6) transcription factor (fusion partner, human ETV6 P41212); expressed in transfected cells; host or cells: luciferase expressing Ba/F3 murine hematopoietic progenitor cells; the other entry of the earlier key: ETV6 (P41212, Transcription factor ETV6)
Test: Inhibition of proliferation of Ba/F3 cells expressing Tel-TrkB (BaF3/Tel-TrkB)
Type: cell-based
Conditions: read-out: Ba/F3 Tel-TrkB IC 50
Protocol: Test compounds were dissolved in DMSO (10 mM) and transferred into 1.4 mL flat bottom or V-shaped Matrix tubes carrying a unique 2D matrix chip by individual compound hubs. The numbers of these chips were distinctively linked to the individual compound identification numbers. The stock solutions were stored at −20° C. if not used immediately. For the test procedure the vials were defrosted and identified by a scanner whereby a working sheet is generated that guides the subsequent working steps.
Compound dilutions were made in 384 well plates. This format enabled the assay of maximally 28 individual test compounds at 12 concentrations (single points) including 2 reference compounds. […]
Compounds of Formula (I) were tested for their antiproliferative effect on Ba/F3 cells expressing either Tel-TrkA, Tel-TrkB or Tel-TrkC and an additional panel of 34 selected diverse kinases activated by fusion to the dimerizing partners Bcr or Tel (Abl, A1K, BMX, EphA3, EphB2, FGFR2, FGFR3, FGFR4, FGR, FLT1, FLT3, FLT4, FMS, IGF1R, InsR, JAK1, JAK2, JAK3, KDR, Kit, Lck, Lyn, MER, MET, PDGFRb, RET, RON, Ros-1, Src, Aurora, TIE2, TYK2, Tie1, ZAP70). […] The IC50 values of the compounds the different cell lines were determined from dose response curves. […]

`N#Cc1ccc(-c2cnc3ccc(N4CCOCC4c4cccc(F)c4)nn23)cc1` (stereo not shown) [Table 2-Compound 1] was tested. Which IC50 did it give?
The IC50 was 5.5 nM.
